Experimental data taken from PMC5915086 (Oncotarget, 2018).
Entries after “also recorded” stand apart in the source; their conditions may differ.

Tested on: MM cell lines
Format: cell-based, human

SMILES: COCCN1CCC(c2cc(CN(C)C(=O)c3cccc(Oc4ccccc4)c3)ccn2)CC1 [TP-064N, N-((2-(1-(2-methoxyethyl)piperidin-4-yl)pyridin-4-yl)methyl)-N-methyl-3-phenoxybenzamide]
- effect on cell growth of MM cells: does not affect; also recorded: did not affect
